Measured values reported in US9274101B2 (BIOLOG, Inc., priority 2001, dated 2016).

Columns and labels:
[1] = system: E. coli MG1655; assay: Nitrogen source testing, EN panel; format: cell-based, Escherichia coli; conditions: 3.0 mM nitrogen source, 35° C., 48 hours
[2] = system: E. coli MG1655; assay: Phosphorus and sulfur source testing, EPS panel; format: cell-based, Escherichia coli; conditions: 1.0 mM phosphorus source, 35° C., 48 hours

Substance: parabanic acid
- suitability as nitrogen source (growth, purple color) [1]: not suitable

Substance: trimetaphosphate
- suitability as phosphorus source (growth, purple color) [2]: positive
